Source: patent US20210238308A1 (Chugai, published 2021)

The chains behind the UniProt entries cited, without tags or fusion partners. A line that says so, or that is headed by a name, gives the form on record, which may keep a tag or linker. Residues count along the entry.
UniProt P55899, 24-290 limits assumed, form in doubt, chain 1 of 2: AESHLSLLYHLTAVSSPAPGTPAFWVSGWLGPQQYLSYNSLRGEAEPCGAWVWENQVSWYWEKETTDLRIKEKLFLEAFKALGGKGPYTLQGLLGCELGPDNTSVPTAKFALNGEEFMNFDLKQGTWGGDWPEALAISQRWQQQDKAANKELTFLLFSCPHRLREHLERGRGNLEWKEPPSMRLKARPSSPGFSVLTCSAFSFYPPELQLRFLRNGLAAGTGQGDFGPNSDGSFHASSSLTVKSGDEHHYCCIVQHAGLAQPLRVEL

T1: human TRIM21 PRYSPRY domain with N-terminal 6xHis tag (human)
T1 construct: Expressed from pET28a in E. coli; also called hTRIM21
T1 chain: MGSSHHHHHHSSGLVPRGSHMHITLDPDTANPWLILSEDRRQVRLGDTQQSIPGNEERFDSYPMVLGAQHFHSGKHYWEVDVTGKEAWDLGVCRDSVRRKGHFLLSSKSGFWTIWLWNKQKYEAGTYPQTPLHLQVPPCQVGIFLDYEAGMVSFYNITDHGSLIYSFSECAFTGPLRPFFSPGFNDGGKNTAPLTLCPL

B1: MRAH-G1d/MRAL-KT0 K439A (antibody, human IgG1, kappa)
heavy: QVQLQESGPGLVRPSQTLSLTCTVSGYSITSDHAWSWVRQPPGRGLEWIGYISYSGITTYNPSLKSRVTMLRDTSKNQFSLRLSSVTAADTAVYYCARSLARTTAMDYWGQGSLVTVSSASTKGPSVFPLAPSSKSTSGGTAALGCLVKDYFPEPVTVSWNSGALTSGVHTFPAVLQSSGLYSLSSVVTVPSSSLGTQTYICNVNHKPSNTKVDKKV[human IgG1 Fc with K439A (EU numbers) omitted here]
light: DIQMTQSPSSLSASVGDRVTITCRASQDISSYLNWYQQKPGKAPKLLIYYTSRLHSGVPSRFSGSGSGTDFTFTISSLQPEDIATYYCQQGNTLPYTFGQGTKVEIKRTVAAPSVFIFPPSDEQLKSGTASVVCLLNNFYPREAKVQWKVDNALQSGNSQESVTEQDSKDSTYSLSSTLTLSKADYEKHKVYACEVTHQGLSSPVTKSFNRGEC
B2: MRAH-G1d/MRAL-KT0 K439G (antibody, human IgG1, kappa)
heavy: QVQLQESGPGLVRPSQTLSLTCTVSGYSITSDHAWSWVRQPPGRGLEWIGYISYSGITTYNPSLKSRVTMLRDTSKNQFSLRLSSVTAADTAVYYCARSLARTTAMDYWGQGSLVTVSSASTKGPSVFPLAPSSKSTSGGTAALGCLVKDYFPEPVTVSWNSGALTSGVHTFPAVLQSSGLYSLSSVVTVPSSSLGTQTYICNVNHKPSNTKVDKKV[human IgG1 Fc with K439G (EU numbers) omitted here]
light: B1 light
B3: MRAH-G1d/MRAL-KT0 Q438P (antibody, human IgG1, kappa)
heavy: QVQLQESGPGLVRPSQTLSLTCTVSGYSITSDHAWSWVRQPPGRGLEWIGYISYSGITTYNPSLKSRVTMLRDTSKNQFSLRLSSVTAADTAVYYCARSLARTTAMDYWGQGSLVTVSSASTKGPSVFPLAPSSKSTSGGTAALGCLVKDYFPEPVTVSWNSGALTSGVHTFPAVLQSSGLYSLSSVVTVPSSSLGTQTYICNVNHKPSNTKVDKKV[human IgG1 Fc with Q438P (EU numbers) omitted here]
light: B1 light
B4: MRAH-G1d/MRAL-KT0 T437M (antibody, human IgG1, kappa)
heavy: QVQLQESGPGLVRPSQTLSLTCTVSGYSITSDHAWSWVRQPPGRGLEWIGYISYSGITTYNPSLKSRVTMLRDTSKNQFSLRLSSVTAADTAVYYCARSLARTTAMDYWGQGSLVTVSSASTKGPSVFPLAPSSKSTSGGTAALGCLVKDYFPEPVTVSWNSGALTSGVHTFPAVLQSSGLYSLSSVVTVPSSSLGTQTYICNVNHKPSNTKVDKKV[human IgG1 Fc with T437M (EU numbers) omitted here]
light: B1 light
B5: MRAH-G1d/MRAL-KT0 K439Q (antibody, human IgG1, kappa)
heavy: QVQLQESGPGLVRPSQTLSLTCTVSGYSITSDHAWSWVRQPPGRGLEWIGYISYSGITTYNPSLKSRVTMLRDTSKNQFSLRLSSVTAADTAVYYCARSLARTTAMDYWGQGSLVTVSSASTKGPSVFPLAPSSKSTSGGTAALGCLVKDYFPEPVTVSWNSGALTSGVHTFPAVLQSSGLYSLSSVVTVPSSSLGTQTYICNVNHKPSNTKVDKKV[human IgG1 Fc with K439Q (EU numbers) omitted here]
light: B1 light
B6: MRAH-G1d/MRAL-KT0 Q438W (antibody, human IgG1, kappa)
heavy: QVQLQESGPGLVRPSQTLSLTCTVSGYSITSDHAWSWVRQPPGRGLEWIGYISYSGITTYNPSLKSRVTMLRDTSKNQFSLRLSSVTAADTAVYYCARSLARTTAMDYWGQGSLVTVSSASTKGPSVFPLAPSSKSTSGGTAALGCLVKDYFPEPVTVSWNSGALTSGVHTFPAVLQSSGLYSLSSVVTVPSSSLGTQTYICNVNHKPSNTKVDKKV[human IgG1 Fc with Q438W (EU numbers) omitted here]
light: B1 light
B7: MRAH-G1d/MRAL-KT0 Q438N (antibody, human IgG1, kappa)
heavy: QVQLQESGPGLVRPSQTLSLTCTVSGYSITSDHAWSWVRQPPGRGLEWIGYISYSGITTYNPSLKSRVTMLRDTSKNQFSLRLSSVTAADTAVYYCARSLARTTAMDYWGQGSLVTVSSASTKGPSVFPLAPSSKSTSGGTAALGCLVKDYFPEPVTVSWNSGALTSGVHTFPAVLQSSGLYSLSSVVTVPSSSLGTQTYICNVNHKPSNTKVDKKV[human IgG1 Fc with Q438N (EU numbers) omitted here]
light: B1 light
B8: MRAH-G1d/MRAL-KT0 K439E (antibody, human IgG1, kappa)
heavy: QVQLQESGPGLVRPSQTLSLTCTVSGYSITSDHAWSWVRQPPGRGLEWIGYISYSGITTYNPSLKSRVTMLRDTSKNQFSLRLSSVTAADTAVYYCARSLARTTAMDYWGQGSLVTVSSASTKGPSVFPLAPSSKSTSGGTAALGCLVKDYFPEPVTVSWNSGALTSGVHTFPAVLQSSGLYSLSSVVTVPSSSLGTQTYICNVNHKPSNTKVDKKV[human IgG1 Fc with K439E (EU numbers) omitted here]
light: B1 light
B9: MRAH-G1d/MRAL-KT0 K439W (antibody, human IgG1, kappa)
heavy: QVQLQESGPGLVRPSQTLSLTCTVSGYSITSDHAWSWVRQPPGRGLEWIGYISYSGITTYNPSLKSRVTMLRDTSKNQFSLRLSSVTAADTAVYYCARSLARTTAMDYWGQGSLVTVSSASTKGPSVFPLAPSSKSTSGGTAALGCLVKDYFPEPVTVSWNSGALTSGVHTFPAVLQSSGLYSLSSVVTVPSSSLGTQTYICNVNHKPSNTKVDKKV[human IgG1 Fc with K439W (EU numbers) omitted here]
light: B1 light
B10: MRAH-G1d/MRAL-KT0 K439S (antibody, human IgG1, kappa)
heavy: QVQLQESGPGLVRPSQTLSLTCTVSGYSITSDHAWSWVRQPPGRGLEWIGYISYSGITTYNPSLKSRVTMLRDTSKNQFSLRLSSVTAADTAVYYCARSLARTTAMDYWGQGSLVTVSSASTKGPSVFPLAPSSKSTSGGTAALGCLVKDYFPEPVTVSWNSGALTSGVHTFPAVLQSSGLYSLSSVVTVPSSSLGTQTYICNVNHKPSNTKVDKKV[human IgG1 Fc with K439S (EU numbers) omitted here]
light: B1 light
B11: MRAH-G1d/MRAL-KT0 T437V (antibody, human IgG1, kappa)
heavy: QVQLQESGPGLVRPSQTLSLTCTVSGYSITSDHAWSWVRQPPGRGLEWIGYISYSGITTYNPSLKSRVTMLRDTSKNQFSLRLSSVTAADTAVYYCARSLARTTAMDYWGQGSLVTVSSASTKGPSVFPLAPSSKSTSGGTAALGCLVKDYFPEPVTVSWNSGALTSGVHTFPAVLQSSGLYSLSSVVTVPSSSLGTQTYICNVNHKPSNTKVDKKV[human IgG1 Fc with T437V (EU numbers) omitted here]
light: B1 light
B12: MRAH-G1d/MRAL-KT0 T437N (antibody, human IgG1, kappa)
heavy: QVQLQESGPGLVRPSQTLSLTCTVSGYSITSDHAWSWVRQPPGRGLEWIGYISYSGITTYNPSLKSRVTMLRDTSKNQFSLRLSSVTAADTAVYYCARSLARTTAMDYWGQGSLVTVSSASTKGPSVFPLAPSSKSTSGGTAALGCLVKDYFPEPVTVSWNSGALTSGVHTFPAVLQSSGLYSLSSVVTVPSSSLGTQTYICNVNHKPSNTKVDKKV[human IgG1 Fc with T437N (EU numbers) omitted here]
light: B1 light
B13: MRAH-G1d/MRAL-KT0 K439T (antibody, human IgG1, kappa)
heavy: QVQLQESGPGLVRPSQTLSLTCTVSGYSITSDHAWSWVRQPPGRGLEWIGYISYSGITTYNPSLKSRVTMLRDTSKNQFSLRLSSVTAADTAVYYCARSLARTTAMDYWGQGSLVTVSSASTKGPSVFPLAPSSKSTSGGTAALGCLVKDYFPEPVTVSWNSGALTSGVHTFPAVLQSSGLYSLSSVVTVPSSSLGTQTYICNVNHKPSNTKVDKKV[human IgG1 Fc with K439T (EU numbers) omitted here]
light: B1 light
B14: MRAH-G1d/MRAL-KT0 K439N (antibody, human IgG1, kappa)
heavy: QVQLQESGPGLVRPSQTLSLTCTVSGYSITSDHAWSWVRQPPGRGLEWIGYISYSGITTYNPSLKSRVTMLRDTSKNQFSLRLSSVTAADTAVYYCARSLARTTAMDYWGQGSLVTVSSASTKGPSVFPLAPSSKSTSGGTAALGCLVKDYFPEPVTVSWNSGALTSGVHTFPAVLQSSGLYSLSSVVTVPSSSLGTQTYICNVNHKPSNTKVDKKV[human IgG1 Fc with K439N (EU numbers) omitted here]
light: B1 light
B15: MRAH-G1d/MRAL-KT0 T437E (antibody, human IgG1, kappa)
heavy: QVQLQESGPGLVRPSQTLSLTCTVSGYSITSDHAWSWVRQPPGRGLEWIGYISYSGITTYNPSLKSRVTMLRDTSKNQFSLRLSSVTAADTAVYYCARSLARTTAMDYWGQGSLVTVSSASTKGPSVFPLAPSSKSTSGGTAALGCLVKDYFPEPVTVSWNSGALTSGVHTFPAVLQSSGLYSLSSVVTVPSSSLGTQTYICNVNHKPSNTKVDKKV[human IgG1 Fc with T437E (EU numbers) omitted here]
light: B1 light
B16: MRAH-G1d/MRAL-KT0 S440I (antibody)
heavy: QVQLQESGPGLVRPSQTLSLTCTVSGYSITSDHAWSWVRQPPGRGLEWIGYISYSGITTYNPSLKSRVTMLRDTSKNQFSLRLSSVTAADTAVYYCARSLARTTAMDYWGQGSLVTVSSASTKGPSVFPLAPSSKSTSGGTAALGCLVKDYFPEPVTVSWNSGALTSGVHTFPAVLQSSGLYSLSSVVTVPSSSLGTQTYICNVNHKPSNTKVDKKV[human IgG1 Fc with S440I (EU numbers) omitted here]
light: B1 light
B17: MRAH-G1d/MRAL-KT0 K439R (antibody, human IgG1, kappa)
heavy: QVQLQESGPGLVRPSQTLSLTCTVSGYSITSDHAWSWVRQPPGRGLEWIGYISYSGITTYNPSLKSRVTMLRDTSKNQFSLRLSSVTAADTAVYYCARSLARTTAMDYWGQGSLVTVSSASTKGPSVFPLAPSSKSTSGGTAALGCLVKDYFPEPVTVSWNSGALTSGVHTFPAVLQSSGLYSLSSVVTVPSSSLGTQTYICNVNHKPSNTKVDKKV[human IgG1 Fc with K439R (EU numbers) omitted here]
light: B1 light
B18: MRAH-G1d/MRAL-KT0 S440G (antibody)
heavy: QVQLQESGPGLVRPSQTLSLTCTVSGYSITSDHAWSWVRQPPGRGLEWIGYISYSGITTYNPSLKSRVTMLRDTSKNQFSLRLSSVTAADTAVYYCARSLARTTAMDYWGQGSLVTVSSASTKGPSVFPLAPSSKSTSGGTAALGCLVKDYFPEPVTVSWNSGALTSGVHTFPAVLQSSGLYSLSSVVTVPSSSLGTQTYICNVNHKPSNTKVDKKV[human IgG1 Fc with S440G (EU numbers) omitted here]
light: B1 light
B19: MRAH-G1d/MRAL-KT0 S440Y (antibody)
heavy: QVQLQESGPGLVRPSQTLSLTCTVSGYSITSDHAWSWVRQPPGRGLEWIGYISYSGITTYNPSLKSRVTMLRDTSKNQFSLRLSSVTAADTAVYYCARSLARTTAMDYWGQGSLVTVSSASTKGPSVFPLAPSSKSTSGGTAALGCLVKDYFPEPVTVSWNSGALTSGVHTFPAVLQSSGLYSLSSVVTVPSSSLGTQTYICNVNHKPSNTKVDKKV[human IgG1 Fc with S440Y (EU numbers) omitted here]
light: B1 light
B20: MRAH-G1d/MRAL-KT0 K439D (antibody, human IgG1, kappa)
heavy: QVQLQESGPGLVRPSQTLSLTCTVSGYSITSDHAWSWVRQPPGRGLEWIGYISYSGITTYNPSLKSRVTMLRDTSKNQFSLRLSSVTAADTAVYYCARSLARTTAMDYWGQGSLVTVSSASTKGPSVFPLAPSSKSTSGGTAALGCLVKDYFPEPVTVSWNSGALTSGVHTFPAVLQSSGLYSLSSVVTVPSSSLGTQTYICNVNHKPSNTKVDKKV[human IgG1 Fc with K439D (EU numbers) omitted here]
light: B1 light

Target: T1, human TRIM21 PRYSPRY domain with …
Experiment: SPR, Ab captured on Protein L, 100 nM hTRIM21

| hTRIM21 binding level ratio (variant/control antibody) | Binder |
| --- | --- |
| 1.03 | B1 |
| 1.12 | B2 |
| 0.419 | B3 |
| 0.554 | B4 |
| 1.06 | B5 |
| 0.605 | B6 |
| 0.564 | B7 |
| 1.09 | B8 |
| 0.948 | B9 |
| 1.02 | B10 |
| 0.19 | B11 |
| 1.09 | B12 |
| 1.06 | B13 |
| 1.03 | B14 |
| 1.19 | B15 |
| 1 | B16 |
| 0.857 | B17 |
| 0.945 | B18 |
| 1.08 | B19 |
| 1.15 | B20 |

The binders below were run against T2, human FcRn (human, UniProt P55899, in part; P61769, in part) (assay: SPR pH 6.0, Ab captured on Protein L, 1 uM hFcRn).
T2 construct: also called hFcRn

| hFcRn binding level ratio (variant/control antibody) | Binder |
| --- | --- |
| 0.91 | B1 |
| 0.88 | B2 |
| 0.05 | B3 |
| 0.91 | B4 |
| 0.94 | B5 |
| 0.96 | B6 |
| 0.78 | B7 |
| 0.9 | B8 |
| 0.08 | B9 |
| 0.9 | B10 |
| 0.87 | B11 |
| 0.95 | B12 |
| 0.91 | B13 |
| 0.91 | B14 |
| 0.95 | B15 |
| 0.92 | B16 |
| 0.92 | B17 |
| 0.95 | B18 |
| 0.92 | B19 |
| 0.64 | B20 |
